Biological target: F-actin (rabbit skeletal α-actin, polymerized) (rabbit, UniProt P68135 1-377)
Assay: co-sedimentation; Coro7 FL with F-actin in the ADP-BeF3- state (F-actin pre-incubated 15 min with 2 mM BeSO4 and 10 mM NaF, KMEI buffer with the same); 4 °C, 1 h; 278,000×g, 30 min; SDS-PAGE densitometry
Settings: both partners purified

fold higher affinity for F-actin in the ADP state than in the ADP-BeF3- state: ~3.5 fold
B1: human Coro7 full length (Coro7 FL) (natural protein)
chain: MNRFRVSKFRHTEARPPRRESWISDIRAGTAPSCRNHIKSSCSLIAFNSDRPGVLGIVPLQGQGEDKRRVAHLGCHSDLVTDLDFSPFDDFLLATGSADRTVKLWRLPGPGQALPSAPGVVLGPEDLPVEVLQFHPTSDGILVSAAGTTVKVWDAAKQQPLTELAAHGDLVQSAVWSRDGALVGTACKDKQLRIFDPRTKPRASQSTQAHENSRDSRLAWMGTWEHLVSTGFNQMREREVKLWDTRFFSSALASLTLDTSLGCLVPLLDPDSGLLVLAGKGERQLYCYEVVPQQPALSPVTQCVLESVLRGAALVPRQALAVMSCEVLRVLQLSDTAIVPIGYHVPRKAVEFHEDLFPDTAGCVPATDPHSWWAGDNQQVQKVSLNPACRPHPSFTSCLVPPAEPLPDTAQPAVMETPVGDADASEGFSSPPSSLTSPSTPSSLGPSLSSTSGIGTSPSLRSLQSLLGPSSKFRHAQGTVLHRDSHITNLKGLNLTTPGESDGFCANKLRVAVPLLSSGGQVAVLELRKPGRLPDTALPTLQNGAAVTDLAWDPFDPHRLAVAGEDARIRLWRVPAEGLEEVLTTPETVLTGHTEKICSLRFHPLAANVLASSSYDLTVRIWDLQAGADRLKLQGHQDQIFSLAWSPDGQQLATVCKDGRVRVYRPRSGPEPLQEGPGPKGGRGARIVWVCDGRCLLVSGFDSQSERQLLLYEAEALAGGPLAVLGLDVAPSTLLPSYDPDTGLVLLTGKGDTRVFLYELLPESPFFLECNSFTSPDPHKGLVLLPKTECDVREVELMRCLRLRQSSLEPVAFRLPRVRKEFFQDDVFPDTAVIWEPVLSAEAWLQGANGQPWLLSLQPPDMSPVSQAPREAPARRAPSSAQYLEEKSDQQKKEELLNAMVAKLGNREDPLPQDSFEGVDEDEWD
notes: human Coro7 (coronin 7), full length: β1, β2 and CA domains; Made as an MBP fusion with a TEV site; the methods tell no cleavage of MBP for this construct; source: human Expi293F cells, purified (amylose, MonoQ)
